Values quoted from earlier work, collected in publication PMC3506555, “[^11C]phenytoin revisited: synthesis by [^11C]CO carbonylation and first evaluation as a P-gp tracer in rats” (EJNMMI Research, 2012).

Tested on: P-glycoprotein (P-gp)
Details: brain, man; ref not given; cited from earlier work

Substance: (R)-^11C]verapamil
- Distribution volume at baseline: around 1
